miR-21 reporter: raises the signal of a miR-21 reporter | HeLa miR-21 FLuc reporter, luciferase, 48 h | Potency, µM (doses to about 38.3 µM) | 340,000 tested, under 10 active | AID 2288; active = well fitted rising curve with a large enough effect; inconclusive = small, poorly fitted or top-dose-only effect; inactive = no such curve, though single readings can be large or run the other way;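 note: miR-21 action dims this reporter so a rising signal means less miR-21 action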
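Using DMEM plus 10% FBS, HeLa miR-21-FLuc cells are incubated with test compounds (final up to about 40uM) for 48 hours; firefly luciferase signal is then imaged following reagent-mediated lysis.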
Nrf2 block: blocks Nrf2 signaling; Potency, µM (titrated, usually from 46 µM), hits mostly inhibitors; A549 ARE-Fluc reporter, luciferase luminescence, 18-24 h; AID 504444; 360,000 compounds, 2.1% hits; note: nearly all actives have a fitted effect of over 60% in size
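Two sequential reads on A549 ARE_Fluc cells exposed to compound for 18-24 h: a CellTiter-Fluor fluorescence read for viability, then a luciferase luminescence read for Nrf2/ARE activity.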
B2AR arrestin: recruits beta-arrestin to the human beta2-adrenergic receptor | 330,000 compounds, 0.02% hits | beta-arrestin recruitment to beta2AR, cell-based reporter | P07550 | Potency, µM (titrated, usually from 46.1 µM), most hits filed as activators; note: nearly all actives have a fitted effect of over 65% in size
A549 tox: A549 cytotoxicity, counter-screen for Nrf2 inhibitors. A549 ARE-Fluc cells, CellTiter-Fluor viability, 18-24 h. Potency, µM (titrated, usually from 46 µM), usual class: inhibitors. 390,000 compounds, 0.16% hits
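Cytotoxicity counterscreen: CellTiter-Fluor fluorescence was measured in A549 ARE_Fluc cells after 18-24 h of compound exposure in a concentration series. The subsequent BugLite luminescent read reports ARE-luciferase activity.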
Nrf2 ARE act: activates Nrf2 signaling; AREc32 ARE-luciferase reporter (MCF7-derived line), luminescence, 24 h; 410,000 compounds, 0.31% hits; Potency, µM (titrated, usually from 46.1 µM), hits mostly activators; AID 624171; note: nearly all actives have a fitted effect of over 65% in size
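Luminescent ARE reporter assay in AREc32_Fluc cells: overnight plating at 37 deg C, 24 hr compound incubation, Steady-Glo added, 30 min RT before reading.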
Numbers stand for hits; – = inactive; ? = inconclusive; · = not tested or not shown. In the library only some 2.2% were active in any assay of this set; here they are far more common. Unless noted, calls come from the whole dose curve; as a rule, active = well fitted curve in the direction sought with a large enough effect; inconclusive = small, poorly fitted or top-dose-only effect, or another doubt; inactive = no such curve, though single readings can be large; an effect the other way counts as inactive or inconclusive.

SMILES | miR-21 reporter | Nrf2 block | B2AR arrestin | A549 tox | Nrf2 ARE act
Cc1ccc(CN(C)C(=O)C2CCN(C(=O)Nc3ccccc3)CC2)o1 | · | – | – | – | –
CN(Cc1ccc(C(C)(C)C)cc1)C(=O)C1CCN(C(=O)Nc2ccccc2)CC1 | · | 20.6µM | – | – | –
CCc1ccc(-n2nc(C)c3c(C(=O)Nc4cc(OC)cc(OC)c4)cc(C)nc32)cc1 | – | – | · | – | –
N#Cc1nc(-c2ccc(OCc3ccc(Cl)cc3)cc2)oc1N1CCCCCC1 | · | – | · | – | ·
COc1ccccc1N/C(N)=N/c1nc(CSc2ccc(C)cc2)cc(=O)[nH]1 | – | 20.6µM | – | – | –
O=C(CN1C(=O)c2ccccc2S1(=O)=O)Nc1cc(S(=O)(=O)N2CCOCC2)ccc1N1CCOCC1 | · | – | · | – | ·
COc1ccc(NC(=O)c2c(C)nn(Cc3ccccc3)c2Cl)cc1S(=O)(=O)N1CCOCC1 | – | 20.6µM | – | – | –
Cc1ccc(NC(=O)c2ccccc2NS(=O)(=O)c2ccc(Cl)s2)cc1S(=O)(=O)N1CCOCC1 | ? | 23.1µM | – | ? | –
Cc1ccc(NC(=O)C2CSC3(C)CCC(=O)N23)cc1S(=O)(=O)N1CCOCC1 (stereo unspecified) | · | – | – | – | –
COc1ccc(C(=O)NCc2c(C)nn(Cc3ccccc3)c2C)cc1S(=O)(=O)N1CCOCC1 | · | – | – | – | –
Cc1ccc(NC(=O)C2CSC3(C)CCC(=O)N23)cc1S(=O)(=O)N1CCCCCC1 (stereo unspecified) | · | 16.4µM | – | – | –
COc1ccc(C(=O)Nc2ccc(C)c(S(=O)(=O)N3CCCCCC3)c2)cc1 | – | 20.6µM | – | – | –
COc1cccc(C)c1NC(=O)C(OC(=O)CNC(=O)c1ccccc1)c1ccccc1 (stereo unspecified) | · | – | · | – | ·
CCOC(=O)c1c(C)c(-c2ccccc2)n(CC(=O)Nc2cc(C)ccc2OC)c1C | – | – | · | – | –
CCC12CN3CC(CC)(CN(C1)C3c1ccc(OCc3ccccc3)cc1)C2=O (stereo unspecified) | – | – | · | – | –
Cc1ccc(CNCc2cn[nH]c2-c2ccc(C)cc2)cc1 | · | – | · | – | ·
CCOc1ccc(S(=O)(=O)NCc2cccn2Cc2cccc(C)c2)cc1 | – | · | · | – | –
COc1ccc(NC(=O)Cc2ccc(C)cc2)cc1S(=O)(=O)N1CCCCC1 | · | – | – | – | –
CCOc1ncccc1C(=O)Nc1cc(S(=O)(=O)N2CCCCC2)ccc1Cl | · | – | – | – | –
CCOc1ncccc1C(=O)Nc1ccc(Cl)c(S(=O)(=O)N2CCCC2)c1 | – | 18.4µM | – | – | –
CC(=O)c1ccc(OCCCC(=O)Nc2ccc(C)c(S(=O)(=O)N3CCCCC3)c2)cc1 | · | 18.4µM | – | – | –
Cc1ccc(C(=O)N(C)CCOc2ccccc2)cc1S(=O)(=O)N1CCCCC1 | · | 20.6µM | – | – | –
COc1ccc(CCC(=O)Nc2ccc(OC)c(S(=O)(=O)N3CCCCC3)c2)cc1 | · | 16.4µM | – | ? | –
COc1ccc(C(=O)NCc2nc(-c3cccc(C)c3)no2)cc1OC | – | – | · | – | –
Cc1cc(C)cc(-n2cnc3cc(C(=O)NCCc4ccccc4)ccc32)c1 | – | · | · | – | –
SMILES | miR-21 reporter | Nrf2 block | B2AR arrestin | A549 tox | Nrf2 ARE act
Cc1ccc(N(Cc2ccccc2)C(=O)c2ccc(C)c(S(=O)(=O)N3CCOCC3)c2)cc1 | · | 14.6µM | – | – | –
CCc1ccc(C(=O)Nc2ccc(OC)c(S(=O)(=O)N3CCCCC3)c2)cc1 | · | 7.31µM | – | – | –
CCc1ccc(C(=O)Nc2ccc(OC)c(S(=O)(=O)N3CCOCC3)c2)cc1 | – | ? | – | – | –
Cc1ccc(NC(=O)c2ccccc2F)cc1S(=O)(=O)N1CCCCCC1 | – | 16.4µM | – | – | –
COc1cccc(-c2cc(C(=O)Nc3cc(OC)c(OC)c(OC)c3)on2)c1 | – | – | · | – | –
COc1cccc(-c2cc(C(=O)Nc3cc(Cl)ccc3O)on2)c1 | – | – | · | – | 7.94µM
O=[S+]([O-])(c1ccc(N2CCOCC2)nc1)N1CCN([S+](=O)([O-])c2c(F)cccc2F)CC1 | · | – | · | – | ·
Cc1cccc(Cn2cc(/C=C/[N+](=O)[O-])c3ccccc32)c1 | ? | 16.4µM | – | · | –
O=[N+]([O-])/C=C/c1cn(Cc2ccc(Cl)cc2)c2ccccc12 | – | ? | – | – | –
Cc1noc(C)c1COc1ccccc1C(=O)NNC(=O)c1ccc(F)cc1 | · | – | – | – | –
Cc1noc(C)c1COc1ccccc1C(=O)NNC(=O)c1ccccc1F | · | – | – | – | 10µM
Cc1cc(C)c(C)c(S(=O)(=O)N2CCN(C(=O)c3ccccc3OCc3c(C)noc3C)CC2)c1C | · | 18.4µM | – | – | –
CCOc1cc(C2Nc3ccccc3C(=O)N2Cc2ccco2)ccc1O (stereo unspecified) | · | – | · | – | ·
Cc1cc2c(s1)c1cnn(Cc3cccc(Cn4ncc5c6sc(C)cc6n(C)c5c4=O)c3F)c(=O)c1n2C | · | – | · | – | ·
Cc1ccc2c(c1)c(=O)c1ccccc1n2CCCC(=O)Nc1cc(Cl)ccc1C | – | – | · | – | –
COc1ccccc1N1CCN(CCCNC(=O)c2cnn(-c3cccc(Cl)c3)c2C2CCN(C(=O)OC(C)(C)C)CC2)CC1 | – | – | · | – | –
COc1ccc(C2Nc3ccccc3C(=O)N2Cc2ccccc2Cl)cc1COc1ccc(NC(C)=O)cc1 (stereo unspecified) | · | – | · | – | ·
COc1ccc(NC(=O)CN(C)C(=O)CCc2ccccc2)cc1 | – | – | – | – | –
COc1ccc(NC(=O)CN(C)C(=O)C2(c3ccccc3)CCCC2)cc1 | · | 8.2µM | – | – | –
CC(=O)c1c(C)[nH]c(C(=O)OC(C)C(=O)Nc2ccc(C)c(S(=O)(=O)N3CCOCC3)c2)c1C (stereo unspecified) | · | – | – | – | –
CCN(CC)S(=O)(=O)c1cc(NC(=O)C(C)OC(=O)c2[nH]c(C)c(C(C)=O)c2C)ccc1C (stereo unspecified) | – | 11.6µM | – | – | –
COc1ccc(C(=O)N2N=C(c3cccs3)CC2c2ccccc2O)cc1 (stereo unspecified) | – | 18.4µM | – | ? | –
COc1ccc(C2=NN(C(=O)c3cccs3)C(c3ccccc3O)C2)cc1 (stereo unspecified) | – | 23.1µM | – | ? | –
COc1ccc2cc(C3CC(c4cccs4)=NN3C(C)=O)c(Cl)nc2c1 (stereo unspecified) | – | – | – | – | –
CC(=O)c1nnn(-c2nc(C#N)nc(N3CCOCC3)n2)c1C | · | – | · | – | ·
Cc1cccc(-c2cc3nc4c(c(N5CCCC(O)C5)n3n2)CCC4)c1 (stereo unspecified) | – | ? | – | – | –
OC1CCCN(c2c3c(nc4cc(-c5cccc(Cl)c5)nn24)CCC3)C1 (stereo unspecified) | – | 4.61µM | – | – | –
